Data: US20220127607A1, “METHODS AND MATERIALS FOR ACTIVATING AN INTERNAL RIBOSOME ENTRY SITE IN EXON 5 OF THE DMD GENE” (RESEARCH INSTITUTE AT NATIONWIDE CHILDREN'S HOSPITAL, priority 2014, published 2022)

Test system: dystrophin IRES
Protocol: FIGS. 5A-5F. […] (FIG. 5A) Dual luciferase assay performed on lysates from C2C12 cells transfected with the pRDEF vector carrying the exon 5-6 IRES construct. […] Error bars representate s.d. […] The image intensity for the wild-type lane was lowered to allow identification of bands. MHC=myosin heavy chain (loading control). […] Immunoblot was performed on each muscle in duplicate, and the signals for both dystrophin and α-actinin from the resulting 5 lanes were quantified using ImageJ. […] The signals for both utrophin and α-actinin from the resulting 5 lanes were quantified using ImageJ.
Furthermore, treatment with the glucocorticoids prednisone and deflazacort are standard treatment for DMD. […] Because utrophin translation may be regulated by corticosteroids and overexpression can compensate for absent dystrophin, we assessed utrophin levels in the same injected muscles (FIG. 5E).

SMILES: C[C@H]1C[C@@H]2[C@H]([C@@H](O)C[C@@]3(C)[C@H]2CC[C@]3(O)C(=O)CO)[C@@]2(C)C=CC(=O)C=C12 [PDN, 6-methyl-prednisolone]
- downstream FLuc activity (fold change): over 20 fold
